System: HEK293 cells
Experiment: Proliferation inhibition (IC50) on non-BCR-ABL-positive HEK293 cells
Conditions: Homo sapiens, HEK293, read-out: IC50 (nM)/HEK293 cell line

In the case of `Cc1nc(Nc2ncc(C(=O)Nc3c(C)cccc3Cl)s2)cc(N2CCN(CCO)CC2)n1` [Dasatinib, reference compound], the IC50 is reported as over 10000 nM.

Source: patent publication US12226424B2, “Target protein degradation compounds, their anti-tumor use, their intermediates and use of intermediates” (ShanghaiTech University, priority 2018, dated 2025)
